The results in this text go back to ChEMBL document CHEMBL3526056, “Characterization of in vitro glucuronidation clearance of a range of drugs in human kidney microsomes: comparison with liver and intestinal glucuronidation and impact of albumin” (Drug Metab Dispos, 2012).

For data set [1], the target named is T1, UDP-glucuronosyltransferase 2B7 (Homo sapiens, UniProt P16662).
T1 sequence (P16662 whole entry): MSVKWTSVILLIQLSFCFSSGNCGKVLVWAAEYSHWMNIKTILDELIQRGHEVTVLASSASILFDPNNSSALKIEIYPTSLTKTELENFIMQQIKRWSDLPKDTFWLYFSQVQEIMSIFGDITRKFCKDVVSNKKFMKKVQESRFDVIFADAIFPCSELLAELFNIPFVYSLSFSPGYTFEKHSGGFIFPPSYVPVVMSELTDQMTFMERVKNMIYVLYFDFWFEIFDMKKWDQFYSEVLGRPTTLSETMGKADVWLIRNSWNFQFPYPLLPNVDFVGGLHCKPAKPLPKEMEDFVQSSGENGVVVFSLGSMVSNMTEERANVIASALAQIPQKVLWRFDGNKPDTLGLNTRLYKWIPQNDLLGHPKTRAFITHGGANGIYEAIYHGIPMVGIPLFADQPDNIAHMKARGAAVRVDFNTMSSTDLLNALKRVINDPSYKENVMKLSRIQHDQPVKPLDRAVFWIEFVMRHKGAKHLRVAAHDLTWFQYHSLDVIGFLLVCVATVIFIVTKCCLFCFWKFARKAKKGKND
Kind of data set: Ratio of UGT2B7-mediated unbound intrinsic glucuronidation clearance in human kidney microsomes to UGT2B7-mediated unbound intrinsic glucuronidation clearance in human liver microsomes at 1 uM. The data set is classed as ADME. Conditions: recombinant enzyme.

The next data set has as its system Liver microsome. Kind of data set: Ratio of unbound intrinsic glucuronidation clearance in human liver microsomes in presence of 1% bovine serum albumin to unbound intrinsic glucuronidation clearance in human liver microsomes in absence of bovine serum albumin. The data set is classed as ADME. The procedure, abridged: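 Ratio of mean unbound CLint,UGT in pooled human liver microsomes with 1% BSA to that without BSA. Both come from 1 μM depletion assays at 37°C in pH 7.1 phosphate buffer, with parent drug measured by LC-MS/MS. BSA runs were quenched in double-volume ice-cold acetonitrile. Each condition was corrected by its own equilibrium-dialysis fu,inc. n = 3, duplicates.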
(In general: Liver microsomes are vesicles of endoplasmic reticulum, rich in cytochrome P450 enzymes.)

The target in data set [2] is T1, UDP-glucuronosyltransferase 2B7. The experiment in a line: Ratio of UGT2B7-mediated unbound intrinsic glucuronidation clearance in human intestinal microsomes to UGT2B7-mediated unbound intrinsic glucuronidation clearance in human liver microsomes at 1 uM. The data set is classed as ADME. Conditions: recombinant enzyme.
The target is the same in data set [3]. The experiment in a line: Ratio of UGT2B7-mediated unbound intrinsic glucuronidation clearance in human kidney microsomes to UGT2B7-mediated unbound intrinsic glucuronidation clearance in human intestinal microsomes at 1 uM in presence of 1% bovine serum albumin. The data set is classed as ADME.
In data set [4] the target is UDP-glucuronosyltransferase 2B7 (Homo sapiens) (UniProt P16662). Kind of data set: Drug metabolism in human intestinal microsomes assessed as UGT2B7-mediated unbound intrinsic glucuronidation clearance at 1 uM after 30 to 60 mins by LC-MS/MS analysis in presence of 1% bovine serum albumin.
The target in data set [5] is T1, UDP-glucuronosyltransferase 2B7. Kind of data set: Ratio of UGT2B7-mediated unbound intrinsic glucuronidation clearance in human kidney microsomes to UGT2B7-mediated unbound intrinsic glucuronidation clearance in human intestinal microsomes at 1 uM. The data set is classed as ADME.
Data set [6] shares this target. The experiment in a line: Ratio of UGT2B7-mediated unbound intrinsic glucuronidation clearance in human intestinal microsomes to UGT2B7-mediated unbound intrinsic glucuronidation clearance in human liver microsomes at 1 uM in presence of 1% bovine serum albumin. It counts as ADME. The note with it: recombinant enzyme.
The target is the same in data set [7]. Kind of data set: Ratio of UGT2B7-mediated unbound intrinsic glucuronidation clearance in human kidney microsomes to UGT2B7-mediated unbound intrinsic glucuronidation clearance in human liver microsomes at 1 uM in presence of 1% bovine serum albumin. The data set is classed as ADME. The note with it: recombinant enzyme.
Data set [8] in a line: Ratio of unbound intrinsic glucuronidation clearance in human intestinal microsomes in presence of 1% bovine serum albumin to unbound intrinsic glucuronidation clearance in human intestinal microsomes in absence of bovine serum albumin. The data set is classed as ADME, Intestine, Microsome. The method, boiled down: (§1)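 Unbound intrinsic glucuronidation clearance measured by parent-drug depletion in intestinal or kidney microsomes, once with 1% BSA and once without, under otherwise matched conditions (1 μM drug, pH 7.1 phosphate, 5 mM cofactor, 37°C). Each value was corrected for fu,inc. The ratio is the mean clearance with BSA over the mean without.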

A short description of data set [9]: Ratio of unbound intrinsic glucuronidation clearance in human kidney microsomes in presence of 1% bovine serum albumin to unbound intrinsic glucuronidation clearance in human kidney microsomes in absence of bovine serum albumin. The data set is classed as ADME, microsome. The method, boiled down: as §1

For the compound `Cc1ccc(C)c(OCCCC(C)(C)C(=O)O)c1` [GEMFIBROZIL], the Ratio in data set [1] amounted to 0.328; in the data set with Liver microsome it was 1.6; in data set [2], 0.048; in data set [3], 29.7; in data set [5], 6.89; in data set [6], 0.011. The Ratio in [7] is given as 0.332; in [8], 1.6; in [9], 1.6. For the same compound, the CL free in data set [4] stood at 0.824 mL/min/g.
